Results from patent US20210346495A1, “METHODS AND COMPOSITIONS COMPRISING AN NFKB INHIBITOR AND AN ADJUVANT” (priority 2018, published 2021).

System: systemic TNF-a and IL-6
Assay: Systemic cytokines after vaccination with NF-kB inhibitor, CpG and ovalbumin (Example 2)
Assay type: in vivo, mouse
Details: one hour post-vaccination

Structure (SMILES): COc1cc(O)c2c(c1)/C=C/C[C@H](O)[C@H](O)C(=O)/C=C\C[C@H](C)OC2=O [5-z-o, 5Z-7-Oxozeaenol]
- systemic IL-6: about a two-fold decrease in IL-6 levels
- systemic TNF-a: reduced the TNF-a levels by two-fold
